According to article PMC3983356 (The Journal of Physical Chemistry. B, 2014):

Assays:
Type in all cases: cell-based
[1] = system: HEK 293A cells; assay: Ensemble whole cell patch clamp
[2] = system: HEK 293A cells; assay: Fluorescence microscopy of patched cells
[3] = system: HEK 293A cells
Outline: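 HEK 293A cells (passages 12–17) detached with detachin, rested in serum-free medium, then 1.5, 5, 10 or 15 million cells in ECS incubated 15 min with graded detergent. Cells were pelleted at 1000 rpm, resuspended in ECS and patched on an IonFlux 16 ensemble whole-cell system with K-aspartate intracellular solution. Time-averaged current over the first 4 min served as the permeability read-out. Detergent giving a 1 nA rise ×15 estimated the onset. Onset concentration vs lipid concentration was fitted linearly: slope Rb, intercept Dw.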

CCCCCCCCCCCCCCCC[N+](C)(C)C [CTAB, cetyltrimethylammonium bromide]
behavior of current traces relative to groups ([1]; 0.01 mM CTAB): midway between groups I and II
steady current level relative to open channel level ([1]; 0.2 mM SDS, 0.1, 1 and 10 mM CTAB): approximately half the open channel levels
relative activity for plasma membrane current induction (SDS:CTAB:ORB) ([1]; superfusion/flow conditions, as function of concentration): 20
state of cells after detergent treatment (PKH26 fluorescence) ([2]; 0.04 mM SDS, 0.001 mM CTAB, 15 min): intact
state of cells after detergent treatment (PKH26 fluorescence) ([2]; 0.2 mM SDS, 0.1–10 mM CTAB, 15 min): intact
state of cells after detergent treatment (PKH26 fluorescence) ([2]; 0.001 and 0.01 mM CTAB): intact
relative ratio of lipid to detergent in cell membranes at the onset of membrane permeability (SDS:CTAB:ORB) ([3]; quiescent conditions): 7
Rb ± standard error (ratio of detergent to lipid in the bilayer at the onset of increased permeability) ([3]; quiescent, 15 min pretreatment, 1.5–15 million cells): 0.3 and 0.3 ± 0.1

Several values for one entry are separate records, joined by “and”; a condition that tells them apart may be missing. Equal values may be shown once.
